# Reference: paper PMC6040060, “Identification of a new alanine racemase in Salmonella Enteritidis and its contribution to pathogenesis” (Gut Pathogens, 2018)
# Columns and labels:
# C[C@H](N)C(=O)O = test: purified protein; conditions: L to D direction, 10 μM PLP, Tris-HCl pH 8.0, 37 °C
# C[C@@H](N)C(=O)O = test: purified protein; conditions: D to L direction, 10 μM PLP, 2.5 mM NAD+, Tris-HCl pH 8.0, 37 °C
substance,measurement,setting,value
Alr (Salmonella enterica subsp. enterica serovar Typhi),Km,C[C@H](N)C(=O)O,62.1 ± 4 mM
same,Km,C[C@@H](N)C(=O)O,66.6 ± 4.3 mM
